{"source": "patent US20140090094A1", "about": "“MODULATORS OF SLC22A7” (BAYER INTELLECTUAL PROPERTY GmbH, priority 2011, published 2014)", "target": "T1, OAT2r (Rattus norvegicus, UniProt Q5RLM2)", "T1 construct": "expressed in transfected cells", "T1 sequence (Q5RLM2 1-535)": "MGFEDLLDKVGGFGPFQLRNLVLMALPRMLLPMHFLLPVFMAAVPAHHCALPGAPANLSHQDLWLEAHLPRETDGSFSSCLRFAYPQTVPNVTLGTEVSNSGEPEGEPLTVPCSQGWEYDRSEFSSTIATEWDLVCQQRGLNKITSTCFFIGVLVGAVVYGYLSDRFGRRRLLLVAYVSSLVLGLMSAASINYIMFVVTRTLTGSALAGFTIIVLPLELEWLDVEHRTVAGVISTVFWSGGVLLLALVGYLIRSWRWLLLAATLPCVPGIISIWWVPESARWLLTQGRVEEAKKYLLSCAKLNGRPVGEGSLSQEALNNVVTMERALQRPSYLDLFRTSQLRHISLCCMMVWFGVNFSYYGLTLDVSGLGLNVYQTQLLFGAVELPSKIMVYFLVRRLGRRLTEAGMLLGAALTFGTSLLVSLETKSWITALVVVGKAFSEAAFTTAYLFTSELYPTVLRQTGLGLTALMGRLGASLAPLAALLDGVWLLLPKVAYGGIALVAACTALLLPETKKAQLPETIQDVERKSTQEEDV", "assay": "trans-stimulation of efflux of 3H-orotic acid via OAT2r", "format": "cell-based", "conditions": "1 mmol/l compound in uptake buffer, 1 min, preloaded cells"}
{"substance": "2-oxoglutarate", "values": [{"measurement": "trans-stimulation of efflux of 3H-orotic acid (in words)", "value": "rejects"}]}
